The values below are quoted from earlier work in publication PMC5584209, “Anti-tumor efficacy of theliatinib in esophageal cancer patient-derived xenografts models with epidermal growth factor receptor (EGFR) overexpression and gene amplification” (Oncotarget, 2017).

The structures appear in SMILES notation. Like-named read-outs stand apart in the source and are kept apart here.

This data set relates to esophageal cancer patients with EGFR gene amplification or copy number gain. Set-up: method as in earlier work. The following applies: cited from earlier work.

For `COc1cc2ncnc(Nc3ccc(F)c(Cl)c3)c2cc1OCCCN1CCOCC1` [Gefitinib, reference compound], the “overall survival HR” value is on record as 0.19 (patients carrying EGFR gene amplification, p = 0.007) and 0.53 (patients with EGFR gene copy number gain, p = 0.042).
